# According to patent US20240225973A1, “COSMETIC COMPOSITION FOR IMPROVING SENSITIVE SKIN” (LG HOUSEHOLD & HEALTH CARE LTD., priority 2023, published 2024):
# System: beta-defensin 2 (human β-defensin 2, hBD-2)
# Test: beta-defensin 2 synthesis ELISA in cortisol-treated HaCaT cells
# Format: cell-based
# Description: First, HaCaT, which is a human epidermal cell of the outermost layer among skin cells, was cultured using Dulbecco's Modified Eagle's Media (DMEM; Gibco, USA) mixed with 10% fetal bovine serum (FBS; Gibco, USA) and 1% antibiotic antimycotic (Gibco, USA) in a 24-well plate under conditions of 37° C. and 5% CO2. […] […] After 24 hours, the cells were treated with curcumin, taurine, and acetyl hexapeptide-8 at experimental concentrations, and cultured for 24 hours. At this time, curcumin, taurine, and acetyl hexapeptide-8 were treated alone, and the concentration of curcumin was fixed at 0.1 ppm and 1 ppm, and then taurine and acetyl hexapeptide-8 were treated in combination of concentrations, and cultured for 24 hours. 24 hours after treatment with each sample, ELISA was performed to quantify the amount of beta-defensin 2 (human β-defensin 2, hBD-2) protein synthesis. ELISA was performed using the HUMAN BETA DEFENSIN 2 ELISA kit (ALPHA DIAGNOSTIC, USA) and using the cell culture medium according to the kit's manual, and the final protein amount was calculated by measuring absorbance at 400 nm. […] At this time, when the amount thereof increased compared to the decrease due to cortisol, it was interpreted that the synthesis of beta-defensin 2 was increased by the sample. In addition, the synergistic effect between respective active substances that enhance beta-defensin 2 which had been reduced by cortisol was predicted through the Colby formula, and when the actual measured value was greater than the predicted value, it was determined that there was the synergistic effect.
substance,measurement,setting,value
acetyl hexapeptide-8,Production amount of beta-defensin 2 (%),"Table 4: each substance at 1 ppm, alone or three cotreated, Cortisol (5 μM) = 100",98.75%
same,Production amount of beta-defensin 2 (%),"single treatment 0.01 ppm, 24 h, HaCaT, cortisol group = 100",98.45%
same,Production amount of beta-defensin 2 (%),"single treatment 0.1 ppm, 24 h, HaCaT, cortisol group = 100",101.37%
same,Production amount of beta-defensin 2 (%),"single treatment 1 ppm, 24 h, HaCaT, cortisol group = 100",98.75%
same,Production amount of beta-defensin 2 (%),"single treatment 5 ppm, 24 h, HaCaT, cortisol group = 100",110.12%
same,Production amount of beta-defensin 2 (%),"single treatment 10 ppm, 24 h, HaCaT, cortisol group = 100",92.66%
same,enhancement efficacy (beta-defensin 2 synthesis),single treatment at 0.1 ppm,confirmed
same,enhancement efficacy (beta-defensin 2 synthesis),single treatment at 5 ppm,confirmed
